The values below come from patent US20050192262A1, “Treatment of tumours” (priority 2001, published 2005).

Holding throughout (experiment): Facscan viability (chlorofluoresceindiacetate / propidiumiodide)
Common to all, as to assay type: cell-based, human
Common to all, as to conditions: 200 nM 17α-AED + rat liver cytosol + PAPS, Herceptin 1:150, 72 hours

The subject of test [1] is DU-145. As to the method: (§1) Effects of HER-2 and 17α-AED-3β-sulfate in breast and prostate cancer cell lines. Cell cultures of prostate cancer cell lines PC-3 and DU-145 as well as mammary cancer cell lines MCF-7 and SKBR-3 were grown in flasks as previously described in the presence or absence of a 200 nM 17α-AED. Cultures containing 17α-AED were further subdivided and these cultures were grown in the presence or absence of Herceptin®, her-2 antibodies, using a stem solution of 1 mg/ml which was further diluted, making the final concentration 1:150 In the cell suspension.
(§2) Representations of each cell line containing no steroid were also treated with herceptin as above. For each cell line and variation of treatment 3 different culture flasks were used.
(§3) Further, a mixture of 100 μL rat liver cytosol and 20 μL of 3′-phosphoadenosine-5′-phosphosulphate (PAPS), corresponding to approximately 0.16 mg of PAPS was shared between and added to cultures containing 17α-AED.
(§4) Finally, for each cell line three samples were kept as untreated controls.
(§5) To estimate the number of viable cells a solution of chlorofluoresceindiacetate was added to the cultures on the last day of culture. This chemical penetrates freely into cells, but is metabolized in the living cell into a form with green fluorescence unable to leave the cell. As counterstaining, to detect dead cells, propidiumiodide, giving a red fluorescence, was added 15 minutes before analyzing the samples in a Facscan. Time for 10000 cells to pass the detector in the Facscan was estimated in order to detect a possible growth inhibitory effect, not resulting in an increased number of dead cells.

Test [2] relates to MCF-7. As to the method:
as §1, §2, §3, §4, §5

The subject of test [3] is PC-3. As to the method:
as §1, §2, §3, §4, §5

In test [4] the test system is SKBR-3. As to the method: as §1, §2, §3, §4, §5

As to “Her-ab: Herceptin®, her-2 antibodies [reference compound]”, the dead in test [1] was 17%; in test [2], 12%; in test [3], 17%; in test [4], 19%.
